Assay results: US20230346796A1 (priority 2010, published 2023)

System: healthy volunteers and patients undergoing a colonoscopy
Experiment: CNS 7056-fentanyl interaction MOAA/S pharmacodynamic analysis
[1] = CNS7056FEN08S, stimuli 1 / 2 min
[2] = CNS7056FEN09S, stimuli 1 / 2 min
[3] = CNS7056FEN12S, stimuli 1 / 2 min
[4] = CNS7056FEN13S, stimuli 1 / 2 min

In the case of `COC(=O)CC[C@@H]1N=C(c2ccccn2)c2cc(Br)ccc2-n2c(C)cnc21` [CNS 7056, 3-[(4S)-8-bromo-1-methyl-6-(2-pyridinyl)-4H-imidazo[1,2-a][1,4]benzodiazepin-4-yl] propionic methyl ester], the “ke0, eta IIV (RSE%)” value (CNS7056FEN01AS) is reported as 35.07 (18.2) %, the “EC50, theta (RSE%)” value (CNS7056FEN01AS, basic model) is reported as 0.349 (4.38) µg/ml and the “Hill Coefficient, theta (RSE%)” value (CNS7056FEN01AS, basic model) is reported as 3.9 (6.87). For the same compound, the “ke0, theta (RSE%)” value (CNS7056FEN01AS, basic model) was 14.8 (5.08) h^-1, the “EC50, eta IIV (RSE%)” value (CNS7056FEN03S) was 36.48 (--- ) % and the “Hill Coefficient, eta IIV (RSE%)” value (CNS7056FEN03S) was 55.43 (--- ) %. The “Hill Coefficient, theta (RSE%)” value (CNS7056FEN03S) was 3.88 (--- ), the “ke0, eta IIV (RSE%)” value (CNS7056FEN03S) was 35.07 (--- ) % and the “ke0, theta (RSE%)” value (CNS7056FEN03S) was 15 (--- ) h^-1. For the same compound, the “EC50, theta (RSE%)” value (CNS7056FEN03S, fentanyl effect added) was 0.348 (--- ) µg/ml, the “EC50, eta IIV (RSE%)” value (CNS7056FEN04S) was 36.48 (16.0) % and the “Hill Coefficient, eta IIV (RSE%)” value (CNS7056FEN04S) was 58.80 (25.1) %. The “Hill Coefficient, theta (RSE%)” value (CNS7056FEN04S) was 4.08 (7.15), the “ke0, eta IIV (RSE%)” value (CNS7056FEN04S) was 32.36 (16.7) % and the “ke0, theta (RSE%)” value (CNS7056FEN04S) was 15.1 (4.78) h^-1. For the same compound, the “EC50, theta (RSE%)” value (CNS7056FEN04S, scope effect, Conc.-EQ. 0.00) was 0.342 (4.44) µg/ml, the “EC50, eta IIV (RSE%)” value (CNS7056FEN05S) was 35.54 (15.8) % and the “Hill Coefficient, eta IIV (RSE%)” value (CNS7056FEN05S) was 60.39 (25.4) %. The “Hill Coefficient, theta (RSE%)” value (CNS7056FEN05S) was 4.24 (7.52), the “ke0, eta IIV (RSE%)” value (CNS7056FEN05S) was 31.39 (16.5) % and the “ke0, theta (RSE%)” value (CNS7056FEN05S) was 14.4 (4.57) h^-1. For the same compound, the “EC50, theta (RSE%)” value (CNS7056FEN05S, fentanyl and scope effect) was 0.346 (4.30) µg/ml, the “Conc.-EQ. (fentanyl concentration-equivalence factor), theta (RSE%)” value (CNS7056FEN06S) was 23.7 (30.7) and the “Conc.-EQ., eta IIV (RSE%)” value (CNS7056FEN06S) was 162.2 (82.6). For the same compound, the “EC50, eta IIV (RSE%)” value (CNS7056FEN06S) was 35.54 (16.0) %, the “Hill Coefficient, eta IIV (RSE%)” value (CNS7056FEN06S) was 61.52 (25.5) % and the “Hill Coefficient, theta (RSE%)” value (CNS7056FEN06S) was 4.4 (5.97). For the same compound, the “ke0, eta IIV (RSE%)” value (CNS7056FEN06S) was 32.12 (16.8) %, the “ke0, theta (RSE%)” value (CNS7056FEN06S) was 13.9 (4.70) h^-1 and the “EC50, theta (RSE%)” value (CNS7056FEN06S, IIV on Conc.-EQ.) was 0.348 (4.39) µg/ml. The “EC50, eta IIV (RSE%)” value (CNS7056FEN07S) was 35.86 (15.7) %, the “Hill Coefficient (γ), eta IIV (RSE%)” value (CNS7056FEN07S) was 51.09 (22.1) % and the “ke0, eta IIV (RSE%)” value (CNS7056FEN07S) was 32.43 (16.8) %. For the same compound, the “EC50, theta (RSE%)” value (CNS7056FEN07S, stimuli 1 min) was 0.336 (4.28) µg/ml, the “Hill Coefficient (γ), theta (RSE%)” value (CNS7056FEN07S, stimuli 1 min) was 4 (2.6) and the “ke0, theta (RSE%)” value (CNS7056FEN07S, stimuli 1 min) was 14.2 (4.66) h^-1. The “EC50, eta IIV (RSE%)” value (CNS7056FEN08S) was 35.70 (15.8) %, the “Hill Coefficient (γ), eta IIV (RSE%)” value (CNS7056FEN08S) was 47.95 (20.9) % and the “ke0, eta IIV (RSE%)” value (CNS7056FEN08S) was 31.51 (16.1) %. The “EC50, theta (RSE%)” value [1] was 0.328 (4.48) µg/ml, the “Hill Coefficient (γ), theta (RSE%)” value [1] was 3.96 (6.18) and the “ke0, theta (RSE%)” value [1] was 13.7 (4.30) h^-1. For the same compound, the “EC50, eta IIV (RSE%)” value (CNS7056FEN09S) was 34.42 (15.9) %, the “Hill Coefficient (γ), eta IIV (RSE%)” value (CNS7056FEN09S) was 52.20 (22.7) % and the “ke0, eta IIV (RSE%)” value (CNS7056FEN09S) was 28.25 (15.0) %. The “Conc.-EQ. (fentanyl concentration-equivalence factor), theta (RSE%)” value [2] was 41.3 (7.21), the “EC50, theta (RSE%)” value [2] was 0.331 (4.16) µg/ml and the “Hill Coefficient (γ), theta (RSE%)” value [2] was 4.43 (6.41). For the same compound, the “ke0, theta (RSE%)” value [2] was 12.8 (4.02) h^-1, the “Conc.-EQ. (fentanyl concentration-equivalence factor), theta (RSE%)” value (CNS7056FEN10S) was 33.1 (29.2) and the “Conc.-EQ., eta IIV (RSE%)” value (CNS7056FEN10S) was 184.1 (91.1). The “EC50, eta IIV (RSE%)” value (CNS7056FEN10S) was 34.74 (16.0) %, the “EC50, theta (RSE%)” value (CNS7056FEN10S) was 0.333 (4.50) µg/ml and the “Hill Coefficient, eta IIV (RSE%)” value (CNS7056FEN10S) was 55.20 (24.6) %. For the same compound, the “Hill Coefficient, theta (RSE%)” value (CNS7056FEN10S) was 4.6 (7.32), the “ke0, eta IIV (RSE%)” value (CNS7056FEN10S) was 32.93 (16.2) % and the “ke0, theta (RSE%)” value (CNS7056FEN10S) was 12.5 (5.00) h^-1. For the same compound, the “Conc.-EQ. (fentanyl concentration-equivalence factor), theta (RSE%)” value (CNS7056FEN11S) was 33.2 (8.37), the “EC50, eta IIV (RSE%)” value (CNS7056FEN11S) was 33.77 (15.7) % and the “EC50, theta (RSE%)” value (CNS7056FEN11S) was 0.328 (4.26) µg/ml. For the same compound, the “Hill Coefficient, eta IIV (RSE%)” value (CNS7056FEN11S) was 54.61 (24.3) %, the “Hill Coefficient, theta (RSE%)” value (CNS7056FEN11S) was 4.41 (7.30) and the “ke0, eta IIV (RSE%)” value (CNS7056FEN11S) was 28.95 (15.8) %. For the same compound, the “ke0, theta (RSE%)” value (CNS7056FEN11S) was 12.9 (4.20) h^-1, the “EC50, eta IIV (RSE%)” value (CNS7056FEN12S) was 36.17 (16.3) % and the “Hill Coefficient (γ), eta IIV (RSE%)” value (CNS7056FEN12S) was 49.35 (21.9) %. For the same compound, the “ke0, eta IIV (RSE%)” value (CNS7056FEN12S) was 29.25 (15.2) %, the “EC50, theta (RSE%)” value [3] was 0.323 (4.42) µg/ml and the “Hill Coefficient (γ), theta (RSE%)” value [3] was 4.11 (6.54). For the same compound, the “ke0, theta (RSE%)” value [3] was 14.1 (4.19) h^-1, the “EC50, eta IIV (RSE%)” value (CNS7056FEN13S) was 35.07 (16.1) % and the “Hill Coefficient (γ), eta IIV (RSE%)” value (CNS7056FEN13S) was 54.25 (23.7) %. The “ke0, eta IIV (RSE%)” value (CNS7056FEN13S) was 30.47 (15.9) %, the “EC50, theta (RSE%)” value [4] was 0.321 (4.33) µg/ml and the “Hill Coefficient (γ), theta (RSE%)” value [4] was 4.18 (7.03). The “ke0, theta (RSE%)” value [4] was 13.9 (4.51) h^-1, the “Conc.-EQ. (fentanyl concentration-equivalence factor), theta (RSE%)” value (CNS7056FEN14S) was 30.3 (28.8) and the “Conc.-EQ., eta IIV (RSE%)” value (CNS7056FEN14S) was 200.0 (78.2). For the same compound, the “EC50, eta IIV (RSE%)” value (CNS7056FEN14S) was 33.93 (6.97) %, the “EC50, theta (RSE%)” value (CNS7056FEN14S) was 0.331 (2.35) µg/ml and the “Hill Coefficient, eta IIV (RSE%)” value (CNS7056FEN14S) was 57.88 (15.0) %. For the same compound, the “Hill Coefficient, theta (RSE%)” value (CNS7056FEN14S) was 4.64 (2.15), the “ke0, eta IIV (RSE%)” value (CNS7056FEN14S) was 32.76 (8.85) % and the “ke0, theta (RSE%)” value (CNS7056FEN14S) was 12.4 (1.52) h^-1. For the same compound, the “Conc.-EQ. (fentanyl concentration-equivalence factor), theta (RSE%)” value (CNS7056FEN18S) was 38.3 (7.72), the “EC50, eta IIV (RSE%)” value (CNS7056FEN18S) was 34.91 (15.3) % and the “EC50, theta (RSE%)” value (CNS7056FEN18S) was 0.331 (4.44) µg/ml. For the same compound, the “Hill Coefficient, eta IIV (RSE%)” value (CNS7056FEN18S) was 56.49 (23.3) %, the “Hill Coefficient, theta (RSE%)” value (CNS7056FEN18S) was 4.56 (7.12) and the “ke0, eta IIV (RSE%)” value (CNS7056FEN18S) was 29.13 (15.0) %. The “ke0, theta (RSE%)” value (CNS7056FEN18S) was 12.9 (3.89) h^-1, the “Conc.-EQ. (fentanyl concentration-equivalence factor), theta (RSE%)” value (CNS7056FEN19S) was 28.2 (30.6) and the “Conc.-EQ., eta IIV (RSE%)” value (CNS7056FEN19S) was 214.1 (113.00). For the same compound, the “EC50, eta IIV (RSE%)” value (CNS7056FEN19S) was 35.23 (14.1) %, the “EC50, theta (RSE%)” value (CNS7056FEN19S) was 0.333 (4.71) µg/ml and the “Hill Coefficient, eta IIV (RSE%)” value (CNS7056FEN19S) was 59.03 (25.8) %. For the same compound, the “Hill Coefficient, theta (RSE%)” value (CNS7056FEN19S) was 4.69 (6.09), the “ke0, eta IIV (RSE%)” value (CNS7056FEN19S) was 34.09 (15.5) % and the “ke0, theta (RSE%)” value (CNS7056FEN19S) was 12.6 (4.36) h^-1. The “Fentanyl concentration-equivalence, eta IIV (RSE%)” value (CNS7056FEN26S) was 192.6 (59.3), the “Hill Coefficient, eta IIV (RSE%)” value (CNS7056FEN26S) was 77.04 (20.4) and the “ke0, theta (RSE%)” value (CNS7056FEN26S) was 12.1 (0.91) h^-1. For the same compound, the “EC50, theta (RSE%)” value (CNS7056FEN26S, zero scores changed to -1.30) was 0.380 (0.94) µg/ml, the “EMAX, fitted theta (RSE%)” value (CNS7056FEN31S) was 4.84 (0.15) and the “EMIN, fitted theta (RSE%)” value (CNS7056FEN31S) was -1.57 (2.99). For the same compound, the “Fentanyl concentration-equivalence, theta (RSE%)” value (CNS7056FEN31S) was 40.1 (6.28), the “Hill Coefficient, eta IIV (RSE%)” value (CNS7056FEN31S) was 75.07 (23.0) and the “Hill Coefficient, theta (RSE%)” value (CNS7056FEN31S) was 5.04 (4.12). The “ke0, theta (RSE%)” value (CNS7056FEN31S) was 12.2 (1.01) h^-1 and the “EC50, theta (RSE%)” value (CNS7056FEN31S, zero scores changed to -1.30) was 0.378 (1.51) µg/ml.
